In US20080242557A1, “System For Detecting Molecular Interactions” (CGK CO., LTD., priority 2004, published 2008):

Test system: IκBα phosphorylation (IKK)
Experiment: Detection of IκBα phosphorylation: translocation of IκBα-mRFP with anti-phospho-IκBα (Ser32)-MNPs in HeLa cells
Type: cell-based
Details: HeLa cells treated with various chemical compounds and growth factors

## IL-2: one of the chemical compounds and growth factors tested as interaction activator
  translocation of the IκBα-mRFP fusion protein under the magnetic field (interaction activator screening): observed to translocate the IκBα-mRFP fusion protein
